Yeast mating assay B: variants of the scFv Ab-14

Binding partner: SARS-CoV-2 spike HR2 peptide, sequence PDVDLGDISGINAS.

The variants keep the light chain, the linker and the frameworks of Ab-14 (scFv order VH, the linker GGGGSGGGGSGGGGS, VL).
VH: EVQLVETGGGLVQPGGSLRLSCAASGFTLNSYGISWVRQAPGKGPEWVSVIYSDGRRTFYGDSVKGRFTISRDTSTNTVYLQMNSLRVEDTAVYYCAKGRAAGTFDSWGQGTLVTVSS
VL: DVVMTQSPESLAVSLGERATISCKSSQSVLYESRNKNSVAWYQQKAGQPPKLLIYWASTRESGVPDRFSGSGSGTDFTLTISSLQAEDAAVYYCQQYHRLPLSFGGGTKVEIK

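The parent was found by panning a naive human phage display library on the peptide. Designed CDR sequences, proposed from the first random library and measured here. Several design methods are mixed in this list. AlphaSeq pools MATa yeast showing the antibodies with MATalpha yeast showing the peptide. The frequency of each diploid, read from paired DNA barcodes, reflects how well the two displayed proteins bind. Read counts were normalised to the haploid input and turned into Kd by a linear fit to BCL2-family pairs of known affinity, for each replicate. Mating was done six times.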

Each variant is given by its three heavy chain CDRs, as the data file delimits them; those of the parent are GFTLNSYGIS, VIYSDGRRTFYGDSVK, GRAAGTFDS.
Variants here have at most six changes.
Each Kd is an estimate from the mating assay, the geometric mean of the replicates in which the pair was seen; lower is stronger.
"nd" marks a missing value. The strain was present, yet no cells mated with the target were sequenced in any replicate, which points to weak or no binding.

* GITLNSYGIS, VIYSDGVRTFYGDSVK, TRAAGYFIE: 89 nM (1 of 6 replicates)
* GFTLNEYGIS, VIYSDSRRTYYGDSVK, GRAAGTFDS: nd (0 of 6 replicates)
* GMTLNEYGIS, VIYSDGRRTFYTDSVK, GRFAGTFDS: 620 pM (6 of 6 replicates)
* GETLNSYGIS, VIYSDGRKTSYGDEVK, GRATGTDDS: nd (0 of 6 replicates)
* GFTLNEYGIS, VIYSDGRRTFYQDSVK, GRAGGTFDS: 6.6 nM (6 of 6 replicates)
* GFTLNAYGIS, VIYSDGRRTFYGDSVK, GRAAVTFDQ: nd (0 of 6 replicates)
* GFLLNSYGIS, VIYSDGRRTFYADSVK, GQAAGTFDS: 4.7 nM (6 of 6 replicates)
* LFTLNQYGIS, VIYSDGRRTRYGDEVK, GRAAGWFDS: nd (0 of 6 replicates)
* GFDLNSYGIS, VIYSDGRRTFYIDSVK, GRAAGTFDI: 3.8 nM (6 of 6 replicates)
* GFVLNSYGIS, VIYSDGRRTAYGDSVK, GRTAGTFDS: 1.8 nM (5 of 6 replicates)
* GFTLNSYGIS, VIYSDGRRTFYSDSVK, GRASGTFDS: 120 nM (1 of 6 replicates)
* GFSLNEYGIS, VIYSDGRRTFYGDSVK, GQAAGTFDR: 4.7 nM (6 of 6 replicates)
* GFSLNSYGIS, VIYSDGRRTFYGDNVK, GMTAGTFDS: 1.5 nM (6 of 6 replicates)
* GFTLNSYGIH, VIYSDGRRKSYGDSVK, GKAAGTFKS: nd (0 of 6 replicates)
* GFTLNSYGIS, VIYSDGHRTFYIDSVK, GQLAGTFDS: 5.0 nM (1 of 6 replicates)
* GFNLNSYGIS, VIYFDGRRTFYGDSVK, GRAAGTFDS: 200 nM (2 of 6 replicates)
* GFDLNSYGIS, VIYSDGRRTFYDDDVK, GKAAGTFDS: nd (0 of 6 replicates)
* GFGLNEYGIS, VIYSDGRRTFYSDSVK, GQAAGTFDS: 630 pM (6 of 6 replicates)
* GFQLNSYGIS, VIYSDGRRTFYQDSVK, GRNAGTFDT: 15 nM (6 of 6 replicates)
* GFSLNNYGIS, VIYSDGRRTFYGDAVK, GKTAGTFDS: 3.0 nM (6 of 6 replicates)
* GFTLNSYGIS, VIYSDGRRTFYGDSVR, GHWGGTFDS: 7.5 nM (3 of 6 replicates)
* DFDLNSYGIS, VIYSDGRRTFYGDSVK, GRQAGTFDS: 11 nM (6 of 6 replicates)
* GFTLNSYGIS, VIYSDGRRTFMGDSVK, GQAAFTFDQ: nd (0 of 6 replicates)
* GFSLNSYGIS, VIYSDGRRTFYGDPVK, GNAAGTFDN: 41 nM (6 of 6 replicates)
* GFTLNSYGIS, VIYSDGIRTFYGDSVK, GDAAGTFDS: 12 nM (6 of 6 replicates)
* GFTLNNYGIS, VIYSDGRRTFYDDSVK, GQTAGTFDS: 750 pM (6 of 6 replicates)
* SFELNSYGIS, VIYADGRRTFYGDSVK, GRAAGTFDS: 8.2 nM (6 of 6 replicates)
* GFSLNEYGIS, VIYSDGRRTFYGDSVK, GRSAGTFDT: 1.2 nM (6 of 6 replicates)
* GFNLNSYGIS, VIYSDGRRTFYTDSVK, GLNAGTFDS: 4.4 nM (6 of 6 replicates)
* GFWLNEYGIS, VIYSDGRRTFYIDSVK, GKAAGTFDS: 23 nM (1 of 6 replicates)
* GFGLNSYGIS, VIYADGRRTFYGDSVK, GRAMGTFDS: nd (0 of 6 replicates)
* GFTLNSYGDS, VIYGLGRRTFYSDSVK, GRAGGTFDS: nd (0 of 6 replicates)
* GFSLNEYGIS, VIYSDGRRTFYGDSVK, GRTAGTFIS: 38 nM (4 of 6 replicates)
* GFTLNEYGIS, VIYSDGRRTFYGDDVK, GRAAVTFDM: nd (0 of 6 replicates)
* GFTLNQYGIS, VIYSDGRRTFYSDSVK, GREAGTFDT: 490 pM (6 of 6 replicates)
* TLTLNSYGIS, VIYSDGRRTFYGDSVK, GRAAGTFNL: nd (0 of 6 replicates)

Top 6 of the variants detected in all replicates, tightest first:

CDR-H1,CDR-H2,CDR-H3,Kd,seen in
GFTLNQYGIS,VIYSDGRRTFYSDSVK,GREAGTFDT,490 pM,6/6
GMTLNEYGIS,VIYSDGRRTFYTDSVK,GRFAGTFDS,620 pM,6/6
GFGLNEYGIS,VIYSDGRRTFYSDSVK,GQAAGTFDS,630 pM,6/6
GFTLNNYGIS,VIYSDGRRTFYDDSVK,GQTAGTFDS,750 pM,6/6
GFSLNEYGIS,VIYSDGRRTFYGDSVK,GRSAGTFDT,1.2 nM,6/6
GFSLNSYGIS,VIYSDGRRTFYGDNVK,GMTAGTFDS,1.5 nM,6/6

A sequence measured in both rounds can read differently, since the two assays cover different ranges.
The authors' rule: three or more of the six replicates give a measured affinity, fewer mean a poor binder.
Empty control strains, which show no peptide, gave a signal in 1% of pairings with all heavy chain designs; the median was 120 nM and 95% of these signals were weaker than 7.0 nM. No background was subtracted.
The parent sequence was in this pool as ten entries: three were never detected, three once, and four in most replicates, with averages from 2.2 nM to 240 nM.

From the AlphaSeq antibody data of Li et al. 2023 (doi:10.1038/s41467-023-39022-2), copy in the FLAb collection.